In test [1] the target is Delta-type opioid receptor (Rattus norvegicus) (UniProt P33533). The test can be described thus: The relative potency of compound was measured against delta opioid receptor to that of [Leu]enkephalin in [3H]DSLET binding assay.
Test [2] has as its target Mu-type opioid receptor (Rattus norvegicus) (UniProt P33535). The test can be described thus: The relative potency of compound was measured against mu opioid receptor to that of [Leu]enkephalin in [3H]DAGO binding assay.
The target is the same in test [3]. The test can be described thus: The relative potency of compound was measured against Opioid receptor mu 1 to that of [Leu]enkephalin in [3H]DAGO binding assay.
Test [4] concerns the target Delta-type opioid receptor (Rattus norvegicus) (UniProt P33533). The test can be described thus: The relative potency of compound was measured against Opioid receptor delta 1 to that of [Leu]enkephalin in [3H]DSLET binding assay.

Chains of the proteins cited; added tags and fusions are not shown.
UniProt P33533, whole entry, looked up: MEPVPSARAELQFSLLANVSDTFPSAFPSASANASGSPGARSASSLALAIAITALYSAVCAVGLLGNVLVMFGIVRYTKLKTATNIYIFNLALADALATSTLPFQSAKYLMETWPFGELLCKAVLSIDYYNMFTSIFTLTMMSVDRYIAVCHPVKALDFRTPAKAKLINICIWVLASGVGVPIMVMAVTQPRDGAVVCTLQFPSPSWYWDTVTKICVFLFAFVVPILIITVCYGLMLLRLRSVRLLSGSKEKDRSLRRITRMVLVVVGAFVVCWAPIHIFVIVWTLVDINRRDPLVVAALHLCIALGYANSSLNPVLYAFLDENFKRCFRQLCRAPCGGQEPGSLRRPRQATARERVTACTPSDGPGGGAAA
UniProt P33535, whole entry, looked up: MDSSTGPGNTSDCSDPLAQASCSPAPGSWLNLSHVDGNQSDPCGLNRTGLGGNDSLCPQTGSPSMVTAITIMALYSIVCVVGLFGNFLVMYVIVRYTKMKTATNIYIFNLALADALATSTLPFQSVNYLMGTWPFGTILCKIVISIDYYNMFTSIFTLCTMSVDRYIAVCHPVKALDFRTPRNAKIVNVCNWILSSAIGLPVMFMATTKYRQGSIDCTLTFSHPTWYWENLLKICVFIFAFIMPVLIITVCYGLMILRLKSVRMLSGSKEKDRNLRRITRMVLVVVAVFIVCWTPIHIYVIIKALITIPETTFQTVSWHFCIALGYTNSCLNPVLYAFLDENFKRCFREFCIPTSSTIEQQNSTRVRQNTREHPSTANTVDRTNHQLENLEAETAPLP

Regarding `NC(=O)[C@H](CCCN=C(N)N)NC(=O)[C@H](CCCN=C(N)N)NC(=O)[C@H]1CC(=O)NCCC[C@H](NC(=O)[C@@H](N)Cc2ccc(O)cc2)C(=O)N[C@@H](Cc2ccccc2)C(=O)N1`, the Relative potency in test [1] came out at 0.00135; in test [2] it was 0.399.

Turning to `CCCC[C@@H](NC(=O)[C@@H](N)Cc1ccc(O)cc1)C(=O)N[C@@H](Cc1ccccc1)C(=O)N[C@@H](CCCN)C(N)=O`, the Relative potency in test [1] was 0.000881; in test [2], 6.97.

As to `CCC[C@@H](NC(=O)[C@@H](N)Cc1ccc(O)cc1)C(=O)N[C@@H](Cc1ccccc1)C(=O)N[C@@H](CCCN)C(N)=O`, the Relative potency was found to be 0.00115 in test [1] and 8.01 in test [2].

The molecule `CC(C)C[C@H](NC(=O)[C@H](Cc1ccccc1)NC(=O)CNC(=O)CNC(=O)[C@@H](N)Cc1ccc(O)cc1)C(=O)O` had a Relative potency in test [1] of 1.

As for `C[C@@H](NC(=O)[C@@H](N)Cc1ccc(O)cc1)C(=O)NCC(=O)N(C)[C@@H](Cc1ccccc1)C(=O)NCCO` [DAMGO], the Relative potency is 7.73 in test [3] and 0.00198 in test [4].
